From patent publication US10703756B2, “Pyrrolo[2,3-D]pyrimidinyl, pyrrolo[2,3-B]pyrazinyl, pyrrolo[2,3-B]pyridinyl acrylamides and epoxides thereof” (Pfizer Inc., priority 2015, dated 2020)

By UniProt entry, the sequences of proteins in these tests, tags left out.
UniProt P52333, whole entry: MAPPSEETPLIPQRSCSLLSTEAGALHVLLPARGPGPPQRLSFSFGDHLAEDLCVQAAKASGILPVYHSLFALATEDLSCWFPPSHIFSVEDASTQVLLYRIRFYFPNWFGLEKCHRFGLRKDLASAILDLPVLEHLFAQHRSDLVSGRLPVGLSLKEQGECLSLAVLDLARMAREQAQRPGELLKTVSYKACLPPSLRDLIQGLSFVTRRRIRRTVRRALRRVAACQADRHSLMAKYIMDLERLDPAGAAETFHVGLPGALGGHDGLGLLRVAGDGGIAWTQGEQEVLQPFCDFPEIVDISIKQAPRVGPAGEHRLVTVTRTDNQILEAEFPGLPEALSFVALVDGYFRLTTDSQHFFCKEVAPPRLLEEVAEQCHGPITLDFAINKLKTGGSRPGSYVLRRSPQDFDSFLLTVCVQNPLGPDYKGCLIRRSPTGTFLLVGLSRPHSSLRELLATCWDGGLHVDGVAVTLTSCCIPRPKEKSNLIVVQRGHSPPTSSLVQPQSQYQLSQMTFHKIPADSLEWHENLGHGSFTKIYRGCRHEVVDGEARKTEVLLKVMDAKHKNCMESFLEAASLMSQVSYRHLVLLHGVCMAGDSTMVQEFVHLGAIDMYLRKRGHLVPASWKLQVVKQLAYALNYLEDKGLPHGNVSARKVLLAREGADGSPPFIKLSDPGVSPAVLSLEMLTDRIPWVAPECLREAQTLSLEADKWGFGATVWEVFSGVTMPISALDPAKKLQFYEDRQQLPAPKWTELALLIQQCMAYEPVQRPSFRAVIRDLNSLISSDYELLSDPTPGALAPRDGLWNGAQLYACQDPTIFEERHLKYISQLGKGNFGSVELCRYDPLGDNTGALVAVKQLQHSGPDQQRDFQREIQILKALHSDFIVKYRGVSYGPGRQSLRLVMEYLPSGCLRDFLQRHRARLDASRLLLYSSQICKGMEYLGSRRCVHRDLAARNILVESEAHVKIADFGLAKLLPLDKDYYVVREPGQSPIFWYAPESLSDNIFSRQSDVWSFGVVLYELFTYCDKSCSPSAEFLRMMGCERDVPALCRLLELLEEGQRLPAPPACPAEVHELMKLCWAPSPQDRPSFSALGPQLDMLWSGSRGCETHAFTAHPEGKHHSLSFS

Columns and labels:
[1] = molecular target: T1, JAK3 enzyme (Homo sapiens, UniProt P52333); assay: JAK Caliper Enzyme Assay at 4 μM ATP; conditions: read-out: JAK3 4 μM ATP IC50
Method: (§1) JAK Caliper Enzyme Assay at 4 μM or 1 mM ATP
(§2) Test article was solubilized in dimethyl sulfoxide (DMSO) to a stock concentration of 30 mM. An 11-point half log dilution series was created in DMSO with a top concentration of 600 μM. The test compound plate also contained positive control wells containing a known inhibitor to define 100% inhibition and negative control wells containing DMSO to define no inhibition. The compound plates were diluted 1 to 60 resulting in a top final assay compound concentration of 10 μM and a 2% DMSO concentration.
(§3) Test article and assay controls were added to a 384-well plate. Reaction mixtures contained 20 mM HEPES, pH 7.4, 10 mM magnesium chloride, 0.01% bovine serum albumin (BSA), 0.0005% Tween 20, 4 μM or 1 mM ATP and 1 μM peptide substrate. The JAK3 assays contained 1 μM of the JAKtide peptide (FITC-KGGEEEEYFELVKK). The assays were initiated by the addition 1 nM JAK3 enzyme and were incubated at room temperature 75 minutes for JAK3. Enzyme concentrations and incubation times were optimized for each new enzyme preps and were modified slightly over time to ensure 20%-30% phosphorylation. The assays were stopped with a final concentration of 10 mM EDTA, 0.1% Coating Reagent and 100 mM HEPES, pH=7.4. […]

[2] = molecular target: T1, JAK3 enzyme; assay: JAK Caliper Enzyme Assay at 1 mM ATP; conditions: read-out: JAK3 1 mM ATP IC50
Method: as §1, §2, §3

[3] = system: IL-15 induced P-STAT5 in human PBMC; assay: PBMC IL-15 Induced P-STAT5; conditions: read-out: PBMC IL15_pSTAT5_IC50, IL-15 final 41 ng/mL
Method: PBMC IL-15 Induced P-STAT5
Test compounds were serially diluted in DMSO, with further dilution of the compounds in RPMI 1640 medium (Invitrogen #72400) supplemented with 10 mM HEPES, pH 7.4, 1 mM sodium pyruvate, and Penicillin/Streptomycin (by adding 5 μL compound/DMSO in 120 μL Dulbecco's Phosphate-Buffered Saline (D-PBS, 1×), [DMSO]=4%, and mixing the solution by repeated pipetting, 6×). IL-15 was diluted to the concentration at 820 ng/mL in RPMI 1640 medium.
Frozen human PBMC (200-250 million cells/vial) was thawed at 37° C. The cells were transferred to 10 mL warm medium in a 50-mL conical tube, and centrifuged at 1,200 RPM at room temperature for 5 min. The supernatant was aspirated. Cells were suspended in 3 mL warm human plasma and incubated at 37° C. in a tissue culture incubator for 1.5 to 2 h. After adding 47 ml D-PBS (37° C.) to PBMC/FBS suspension, centrifuging at 1,200 RPM at room temperature for 5 min, and aspirating the supernatant, the cells were resuspended in 20 mL warm RPMI medium. Ninety μL of cell suspension were pipetted per well in a 96-well, deep-well, V-bottom plate, and the plate was incubated at 37° C. for 30 min. […] Samples were analyzed using a BD Calibur™ or BD FACSCanto™ flow cytometer equipped with the BD High Throughput Sampler.

## C#CCOCCc1c[nH]c2ncnc(N[C@@H]3CC[C@H](C)N(C(=O)C=C)C3)c12 [Example 131, 1-[(2S,5R)-2-Methyl-5-({5-[2-(prop-2-yn-1-yloxy)ethyl]-7H-pyrrolo[2,3-d]pyrimidin-4-yl}amino)piperidin-1-yl]prop-2-en-1-one]
[1]
  IC50: 0.534 nM
[2]
  IC50: 24 nM
[3]
  IC50: 86.2 nM
